The source of these data is patent US9580464B2, “Anti-inflammatory proteins and peptides and methods of preparation and use thereof” (ManukaMed Limited, priority 2012, dated 2017).

The target in the assay is Cathepsin B from bovine spleen (Bos taurus, UniProt P07688). As to the kind of experiment: Assay for Cathepsin B activity / inhibition (Z-Lys-pNP substrate, absorbance 330 nm). Type of assay: biochemical.

In the case of TNBS-FAK-pNA, the “Cathepsin B inhibitory activity” value is, setting by setting: (C-terminus containing paranitroanilide (pNA)) “limited inhibitory activity”; (pNA group removed with NaOH, before and after MGO-modification, data not shown) “Inhibitory activity was still not observed”.
